# Data reported in PubChem BioAssay AID504651 (National Center for Advancing Translational Sciences (NCATS), 2011).
# Chains of the proteins cited; added tags and fusions are not shown.
# UniProt P21728, whole entry, looked up: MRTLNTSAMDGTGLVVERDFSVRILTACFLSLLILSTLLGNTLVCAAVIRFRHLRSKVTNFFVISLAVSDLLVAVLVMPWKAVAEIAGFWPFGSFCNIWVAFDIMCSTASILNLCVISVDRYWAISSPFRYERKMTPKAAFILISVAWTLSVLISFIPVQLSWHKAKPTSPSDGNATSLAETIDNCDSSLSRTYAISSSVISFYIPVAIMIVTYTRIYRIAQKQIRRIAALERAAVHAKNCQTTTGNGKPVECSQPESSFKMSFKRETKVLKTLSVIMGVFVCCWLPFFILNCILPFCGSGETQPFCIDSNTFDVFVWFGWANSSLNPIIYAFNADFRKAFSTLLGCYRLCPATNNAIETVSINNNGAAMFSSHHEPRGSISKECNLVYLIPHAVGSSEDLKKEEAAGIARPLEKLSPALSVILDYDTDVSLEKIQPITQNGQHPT
# “And” between values parts separate entries of the source, which are not always exact repeats. Equal entries are not always repeated. This is a selection; strong and weak results do not stand in their true shares. The source made the active and inactive calls. No stated cut-off is given here; in the data, active means potentiation above about 30%; inactive means the rest.
# Target: D(1A) dopamine receptor (Homo sapiens) (UniProt P21728)
# Assay: Potentiators of Human D1 Dopamine Receptor: qHTS; further: 0% is about no effect
# Details: HEK293 TREx D1 cells, calcium flux, dopamine EC20 potentiation; at 10 µM; hits give high values
# Excerpt: Dopamine receptors (DARs) are involved in the etiology and/or therapy of a number of neuropsychiatric and endocrine disorders. For instance, all receptor-based antiparkinsonian drugs work via stimulating the D1 DAR subtype whereas all FDA-approved antipsychotic agents are antagonists of this receptor. […] There are three different types of allosteric modulators that we are seeking, two of which will stimulate or augment receptor signaling, allosteric agonists and potentiators, while the third, allosteric antagonists, will attenuate receptor signaling. The present primary screening assay measures compound potentiation of an EC20 dopamine response by tracking calcium flux in a […], inducible Hek293 Trex D1 cell line.
# NIH Chemical Genomics Center [NCGC]
# NIH Molecular Libraries Probe Centers Network [MLPCN]
# Assay Submitter (PI): David Sibley
# Freshly passaged cells are plated in 1536 well black, clear bottom plates at a density of 4000 cells/well in 3 ul of complete media containing 1x tetracycline inducer. After an overnight incubation at 30 C in 5% CO2, cells are loaded with 2 ul of the no wash Calcium Assay Kit (ABD Bioquest) and incubated at room temperature for 30 to 90 minutes. A 10 cycle (1 second/cycle) baseline measurement is taken and then the FDSS online 1536 pintool delivers 23 nl of compound library (as well as dopamine controls) to the plate. The plate is measured for kinetically at 1 cycle/sec for 180 seconds and is considered to be the agonist portion of the assay (eg, compounds which activate a positive calcium response during this portion are flagged as potential agonists). Following the 180 second read, 1 ul of an EC20 of dopamine is delivered by an onboard pipette head. Measurements are taken kinetically for an additional 180 seconds.
row,Compound,potentiation
1,CC(=O)NC(SC(=S)N(CC(C)C)CC(C)C)C(Cl)(Cl)Cl (centres undefined),inactive: 2.8%
2,Cc1ccc(OP(=O)(Nc2ccccn2)Oc2ccc(C)cc2)cc1,inactive: -3.75%
3,COC(=O)c1cc2c(s1)N=C(c1ccccc1)N(C)P2(=O)N1CCOCC1 (centres undefined),inactive: -10.2%
4,CCC(=O)N1C2C3N(C(=O)CC)C1C1N(C(=O)CC)C(C(N1C(=O)CC)N3C(=O)CC)N2C(=O)CC,inactive: -3.35%
5,O=C(OC1CN2CCC1CC2)c1ccccc1 (centres undefined),inactive: -1.25%
6,O=c1c2cc([N+](=O)[O-])ccc2[nH]c2c([N+](=O)[O-])cc([N+](=O)[O-])cc12,inactive: -7.4%
7,CN(C)C(=O)Oc1noc2ccccc12,inactive: 1.65%
8,Cc1ccccc1OP(=O)(Nc1ccccn1)Oc1ccccc1C,inactive: -10.3%
9,CC(=O)Nc1ccc([As](=O)(O)O)cc1,inactive: -0.8%
10,O=C(O)c1ccccc1[As](=O)(O)O,inactive: -5.45%
11,O=P(Nc1nc2ccc(Cl)cc2s1)(c1ccccc1)c1ccccc1,inactive: -4.5%
12,Cc1ccc(NP(=O)(Oc2ccccc2F)Oc2ccccc2F)nc1,inactive: -4.15%
13,Cc1cc(SC(NC(=O)c2ccc(F)cc2)C(Cl)(Cl)Cl)ncn1 (centres undefined),inactive: -1.05%
14,CCOP(=O)(Nc1ccccc1)OCC,inactive: -3.27% and inactive: -2.45%
15,O=[N+]([O-])c1cc([N+](=O)[O-])c(CCN2CCOCC2)c([N+](=O)[O-])c1,inactive: 2.6%
16,CCN(N=Nc1nonc1N)c1nonc1N,inactive: 3.6%
17,Nc1cccc2ccc([As](=O)(O)O)cc12,inactive: -8.35%
18,NC(=O)c1cc([N+](=O)[O-])cc([N+](=O)[O-])c1N,inactive: -1.35%
19,Cc1ccc(N/C(=N/P(=O)(N2CCOCC2)N2CCOCC2)N2CCOCC2)cc1,inactive: -5.25%
20,CN(C(=O)Cc1ccc(Cl)c(Cl)c1)[C@H]1CCCC[C@H]1N1CCCC1,inactive: 3.2%

row,Compound,potentiation
1,Cc1ccc(OP(=O)(Nc2nccs2)Oc2ccc(C)cc2)cc1,inactive: 0.75%
2,COc1ccccc1OP(=O)(Nc1ccc(C)cn1)Oc1ccccc1OC,inactive: 0.2%
3,CN1CCCC(OC(=O)C(c2ccccc2)c2ccccc2)C1 (centres undefined),inactive: 4.7%
4,Clc1ccc(Cl)c(NC2=NCC(CBr)S2)c1 (centres undefined),inactive: -0.85%
5,Nc1cc(N)c2nonc2c1[N+](=O)[O-],inactive: -4.85%
6,O=C(NC(Sc1ccncn1)C(Cl)(Cl)Cl)c1ccccc1 (centres undefined),inactive: -8.9%
7,Cc1c2non([O-])c-2c(C)[n+](=O)[n+]1[O-],inactive: 1.6%
8,Oc1ccccc1CNc1ccccn1,inactive: -4%
9,COc1ccc(C2=NCC(CBr)S2)cc1 (centres undefined),inactive: -8.15%
10,CC(=O)N1C2C3N(C(C)=O)C1C1N(C(C)=O)C(C(N1C(C)=O)N3C(C)=O)N2C(C)=O,inactive: 2.38%
11,O=[N+]([O-])c1cccc2n[nH]nc12,inactive: -2.05%
12,O=[N+]([O-])c1cc([N+](=O)[O-])c(CCNc2ccccc2)c([N+](=O)[O-])c1,inactive: -4.95%
13,CCc1nc2c(n1)c1c(non1O)c1c2no[n+]1[O-],inactive: -2.25%
14,Cc1ccc(NP(=O)(Oc2ccccc2)Oc2ccccc2)nc1,inactive: -0.85%
15,C[N+]1=C2C=CC=CC=C2SC12C([N+](=O)[O-])=CC([N+](=O)[O-])=C[C-]2[N+](=O)[O-] (centres undefined),inactive: -3.4%
16,Nc1ccc([As](=O)(O)c2ccc(N)cc2)cc1,inactive: -5%
17,CCN(/C(=N/P(=O)(N1CCOCC1)N1CCOCC1)N1CCOCC1)c1ccc(OC)cc1,inactive: -5.3%
18,CN(C)C(=O)OCCc1n(C)cc[n+]1C,inactive: -2.4%
19,CC(C)=N/N=C(\N)N[N+](=O)[O-],inactive: -1.55%
20,CC1CCN(C(=O)Oc2c(Cl)cc(Cl)c3cccnc23)CC1,inactive: -7.5%

row,Compound,potentiation
1,O=C(Nc1cc([As](=O)(O)O)ccc1O)c1ccccc1,inactive: 0.05%
2,CC(C)(C)C(=O)NC(Sc1ccncn1)C(Cl)(Cl)Cl (centres undefined),inactive: 1.6%
3,O=[N+]([O-])c1ncn(CCn2ncnc2[N+](=O)[O-])n1,inactive: -4.75%
4,O=[N+]([O-])c1cccc(NC2=NCC(CBr)S2)c1 (centres undefined),inactive: -5.15%
5,O=C(O)CNc1ccc([As](=O)(O)O)cc1,inactive: 5.55%
6,CCOC(=O)Nc1ccc([As](=O)(O)O)c(O)c1,inactive: 1.6%
7,Cc1cc(SC(NC(=O)c2ccccc2)C(Cl)(Cl)Cl)nc(C(C)C)n1 (centres undefined),inactive: -9.3%
8,CCCCOc1ccc(C(=O)NCC2(N3CCCCC3)CCCCC2)cc1OC,inactive: 5.75%
9,CCOC(=O)Nc1cccc([As](=O)(O)O)c1,inactive: 0.3%
10,O=[N+]([O-])c1ccc(Nc2ccc(Oc3ccc([N+](=O)[O-])cc3[N+](=O)[O-])cc2)c([N+](=O)[O-])c1,inactive: 0.3%
11,Cc1cc(SC(NC=O)C(Cl)(Cl)Cl)ncn1 (centres undefined),inactive: 1.75%
12,O=P(Nc1ccccn1)(c1cccc2ccccc12)c1cccc2ccccc12,inactive: 4.59%
13,COP1(=S)c2c(C)nn(CCC#N)c2N=C(c2ccc(F)cc2)N1C (centres undefined),inactive: 4.3%
14,O=C(Nc1ccncc1[N+](=O)[O-])c1ccc([N+](=O)[O-])cc1[N+](=O)[O-],inactive: 1.45%
15,O=C(COc1ccccc1)OC1CN2CCC1CC2 (centres undefined),inactive: 0.35%
16,CCOC(=O)c1ccc(NC(=O)C(C)(CCl)SC)cc1 (centres undefined),inactive: -4.45%
17,O=C(OC1CN2CCC1CC2)c1cccc([N+](=O)[O-])c1 (centres undefined),inactive: 1.5%
18,CCOP(=O)(Nc1cccc2cccnc12)OCC,inactive: 4%
19,CCC(C)N(CC(C)C)C(=S)SC(NC(C)=O)C(Cl)(Cl)Cl (centres undefined),inactive: 11.1%
